ChEMBL document CHEMBL3244030, “2-Methoxyphenylethanolamines, potential beta-adrenergic blocking agents” (J Med Chem, 1978)

Amino acid sequences for entries named in this document (tags omitted).
UniProt Q8K4Z4, whole entry: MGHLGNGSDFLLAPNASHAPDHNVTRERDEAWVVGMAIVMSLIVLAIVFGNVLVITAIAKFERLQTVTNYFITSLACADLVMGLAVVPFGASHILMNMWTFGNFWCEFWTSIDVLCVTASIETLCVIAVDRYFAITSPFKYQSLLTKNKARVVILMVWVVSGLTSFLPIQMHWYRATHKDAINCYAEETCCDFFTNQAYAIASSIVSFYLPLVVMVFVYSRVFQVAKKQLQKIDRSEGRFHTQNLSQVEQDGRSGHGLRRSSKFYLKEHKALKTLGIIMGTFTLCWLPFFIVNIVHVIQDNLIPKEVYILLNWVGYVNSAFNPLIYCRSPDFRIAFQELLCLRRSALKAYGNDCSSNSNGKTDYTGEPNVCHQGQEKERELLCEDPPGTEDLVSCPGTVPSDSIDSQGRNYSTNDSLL

Experiments:
[1] = biological target: Beta-2 adrenergic receptor (Cavia porcellus, UniProt Q8K4Z4); assay: Antagonist activity at beta2 adrenoceptor in guinea pig trachea assessed as inhibition of isoproterenol-induced response after 20 mins; settings: read-out: pA2 (converted)
[2] = organism: Cavia porcellus; assay: Selectivity ratio for beta1 adrenoceptor in guinea pig atrium over beta2 adrenoceptor in guinea pig trachea; format: tissue-based; settings: Cardiac atrium

CC(C)NCC(O)COc1ccc(CC(N)=O)cc1 (configuration not stated) [ATENOLOL]
Kb [1]: 1260 nM | Selectivity ratio [2]: 30
